Data taken from US7183411B2, “Naphthol, quinoline and isoquinoline-derived urea modulators of vanilloid VR1 receptor” (Janssen Pharmaceutica N.V., priority 2002, dated 2007).

Chains of the proteins cited; added tags and fusions are not shown.
UniProt O35433, whole entry: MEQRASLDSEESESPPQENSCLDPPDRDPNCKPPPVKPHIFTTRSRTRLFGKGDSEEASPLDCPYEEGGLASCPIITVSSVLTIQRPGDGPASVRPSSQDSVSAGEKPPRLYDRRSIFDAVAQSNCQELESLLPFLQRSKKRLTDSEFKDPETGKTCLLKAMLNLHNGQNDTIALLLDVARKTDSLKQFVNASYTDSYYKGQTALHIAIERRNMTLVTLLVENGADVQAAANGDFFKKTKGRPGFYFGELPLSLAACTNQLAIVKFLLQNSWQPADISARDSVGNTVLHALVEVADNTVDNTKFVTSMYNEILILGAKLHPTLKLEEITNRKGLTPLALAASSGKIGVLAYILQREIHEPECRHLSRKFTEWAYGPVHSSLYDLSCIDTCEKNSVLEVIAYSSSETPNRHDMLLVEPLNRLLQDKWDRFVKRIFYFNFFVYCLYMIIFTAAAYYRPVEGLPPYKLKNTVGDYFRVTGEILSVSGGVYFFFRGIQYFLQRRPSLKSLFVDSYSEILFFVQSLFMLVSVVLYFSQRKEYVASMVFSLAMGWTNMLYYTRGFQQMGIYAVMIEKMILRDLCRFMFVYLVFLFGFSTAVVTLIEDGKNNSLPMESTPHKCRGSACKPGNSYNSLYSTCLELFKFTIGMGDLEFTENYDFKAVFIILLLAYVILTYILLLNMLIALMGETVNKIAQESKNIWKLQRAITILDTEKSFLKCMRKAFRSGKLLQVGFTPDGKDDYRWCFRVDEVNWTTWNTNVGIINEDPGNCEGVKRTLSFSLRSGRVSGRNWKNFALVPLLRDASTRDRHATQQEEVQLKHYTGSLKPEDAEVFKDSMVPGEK
UniProt Q8NER1, whole entry: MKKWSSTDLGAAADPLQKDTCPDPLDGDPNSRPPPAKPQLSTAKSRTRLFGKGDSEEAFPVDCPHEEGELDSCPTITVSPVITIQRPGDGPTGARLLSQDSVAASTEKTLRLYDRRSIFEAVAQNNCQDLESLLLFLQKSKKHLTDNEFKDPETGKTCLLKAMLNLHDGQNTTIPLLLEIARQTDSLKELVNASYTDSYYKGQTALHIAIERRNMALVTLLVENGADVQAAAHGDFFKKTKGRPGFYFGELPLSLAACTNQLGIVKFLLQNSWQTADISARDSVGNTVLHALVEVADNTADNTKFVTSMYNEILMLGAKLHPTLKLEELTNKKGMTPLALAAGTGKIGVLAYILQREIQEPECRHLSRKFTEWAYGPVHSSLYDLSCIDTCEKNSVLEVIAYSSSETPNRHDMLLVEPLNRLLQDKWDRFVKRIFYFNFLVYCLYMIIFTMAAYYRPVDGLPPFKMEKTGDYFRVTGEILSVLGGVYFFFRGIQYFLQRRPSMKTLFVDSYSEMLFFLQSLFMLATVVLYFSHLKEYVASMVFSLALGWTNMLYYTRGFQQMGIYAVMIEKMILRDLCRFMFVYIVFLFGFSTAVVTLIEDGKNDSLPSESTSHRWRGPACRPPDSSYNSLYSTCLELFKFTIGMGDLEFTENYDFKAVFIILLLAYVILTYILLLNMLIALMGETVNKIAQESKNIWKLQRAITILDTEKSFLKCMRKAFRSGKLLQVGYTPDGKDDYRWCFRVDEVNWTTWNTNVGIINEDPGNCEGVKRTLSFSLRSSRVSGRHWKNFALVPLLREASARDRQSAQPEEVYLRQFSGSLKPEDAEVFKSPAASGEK

Assays:
VR1 (rat spinal cord) = VR1 (rat spinal cord) (Rattus norvegicus, UniProt O35433); assay: [3H]-RTX binding assay using rat tissue (spinal cord membranes); settings: read-out: Receptor binding Ki (rat), cells marked (rat)
[1] = target: human VR1 vanilloid receptors (Homo sapiens, UniProt Q8NER1); assay: [3H] RTX binding assay, hVR1 membranes from transfected HEK293 cells; settings: read-out: Receptor binding Ki

Row | Ki (VR1 (rat spinal cord)) [nM] | Structure (SMILES) | Ki [1] [nM]
1 | 349 | O=C(NCc1cc2ccccc2s1)Nc1cccc2ccc(O)cc12 | 
2 |  | O=C(NCc1ccc(Cl)c(C(F)(F)F)c1)Nc1cccc2cnccc12 | 0.82
3 |  | COc1ccc(C(CNC(=O)Nc2cccc3cnccc23)Cc2ccccc2)cc1 (stereo not drawn) | 5.89
